# Yeast mating assay B: variants of the scFv Ab-14

Target: peptide PDVDLGDISGINAS, taken from heptad repeat 2 (HR2) of SARS-CoV-2 spike.

Parent scFv Ab-14: VH joined to VL by three GGGGS repeats. Changes lie in the heavy chain CDRs alone.
VH: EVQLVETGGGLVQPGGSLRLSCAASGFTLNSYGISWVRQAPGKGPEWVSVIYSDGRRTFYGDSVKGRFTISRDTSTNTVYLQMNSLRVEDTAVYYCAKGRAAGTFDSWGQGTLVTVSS
VL: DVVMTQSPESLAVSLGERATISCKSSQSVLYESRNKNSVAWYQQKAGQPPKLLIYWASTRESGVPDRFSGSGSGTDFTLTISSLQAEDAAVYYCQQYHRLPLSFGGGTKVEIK

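These sequences belong to a second round, designed from the earlier measurements on random variants of the parent. Several design methods are mixed in this list. AlphaSeq pools MATa yeast showing the antibodies with MATalpha yeast showing the peptide. Pairs that bind mate more often; barcode pairs of the diploids are counted by sequencing. A regression on co-assayed BCL2-family reference pairs converts the normalised counts of each replicate to an apparent Kd. There are six technical replicates.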

The whole VH of each variant is written out.
This list holds designs with at most six substitutions.
Numbers give log10(Kd / nM), so 0 is 1 nM and 3 is 1 µM. Smaller is tighter.
Averages over replicates are reported, and they cover detected replicates only.
"nd" means that the variant was in the library but no mating with the target was seen in any replicate; the authors take this as a sign of poor binding, and no number exists.
A sequence measured in both rounds can read differently, since the two assays cover different ranges.

The variant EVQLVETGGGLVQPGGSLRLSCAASGFTLNSYGISWVRQAPGKGPEWVSVIYADGRRTFYQDSVKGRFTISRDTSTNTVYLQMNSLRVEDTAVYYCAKGRAAGTFDSWGQGTLVTVSS gave 0.35 (6 of 6 replicates).
The variant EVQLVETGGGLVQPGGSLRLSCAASGFDLNSYGISWVRQAPGKGPEWVSVIYSDGRRTFYSDRVKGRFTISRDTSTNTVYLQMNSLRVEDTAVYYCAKGEAAGTFDKWGQGTLVTVSS gave 0.86 (6 of 6 replicates).
The variant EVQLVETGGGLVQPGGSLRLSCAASGFTLNTYGISWVRQAPGKGPEWVSVIYADGRRTFYTDSVKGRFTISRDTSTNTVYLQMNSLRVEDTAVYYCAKGRAAGTFRLWGQGTLVTVSS gave 2.37 (2 of 6 replicates).
The variant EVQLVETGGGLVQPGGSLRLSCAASGFFLNEYGISWVRQAPGKGPEWVSVIYSDGRRTFYGPSVKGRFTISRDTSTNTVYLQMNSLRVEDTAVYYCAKGRAAVTFDQWGQGTLVTVSS gave 1.92 (1 of 6 replicates).
The variant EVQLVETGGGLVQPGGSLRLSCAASGFTLESYGISWVRQAPGKGPEWVSVIYADGRRTFYGDSVKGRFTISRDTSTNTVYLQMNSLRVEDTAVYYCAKGQAAGTFDAWGQGTLVTVSS gave 0.64 (6 of 6 replicates).
The variant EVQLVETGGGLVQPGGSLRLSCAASGFDLNEYGISWVRQAPGKGPEWVSVIYADGRRTFYTDSVKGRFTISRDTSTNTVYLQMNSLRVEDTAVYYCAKGQIAGTFDSWGQGTLVTVSS gave -0.01 (4 of 6 replicates).
The variant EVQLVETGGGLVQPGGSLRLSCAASGFDLNEYGISWVRQAPGKGPEWVSVIYADGRRTFYADSVKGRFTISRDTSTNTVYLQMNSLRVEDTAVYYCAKGANAGTFDSWGQGTLVTVSS gave -0.19 (6 of 6 replicates).
The variant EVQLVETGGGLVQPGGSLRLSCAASGFELNSYGISWVRQAPGKGPEWVSVIYSDGRRTFYGDSVKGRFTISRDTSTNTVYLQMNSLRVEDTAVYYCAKGKKAGTFDTWGQGTLVTVSS gave 2.37 (3 of 6 replicates).
The variant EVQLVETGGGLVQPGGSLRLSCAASGFTLNSYGISWVRQAPGKGPEWVSVIYSDGRRTFYDDKVKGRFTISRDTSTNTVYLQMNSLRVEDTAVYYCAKGQLAGTFDSWGQGTLVTVSS gave 0.99 (6 of 6 replicates).
The variant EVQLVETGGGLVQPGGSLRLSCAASGFTLNDYGISWVRQAPGKGPEWVSVIYSDGRRTFYGDSVKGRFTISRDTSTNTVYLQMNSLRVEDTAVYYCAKGRVAGTFDKWGQGTLVTVSS gave 0.85 (6 of 6 replicates).
The variant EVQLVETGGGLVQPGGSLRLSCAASNFTLNEYGISWVRQAPGKGPEWVSVIYSNGRRYFYTDSVKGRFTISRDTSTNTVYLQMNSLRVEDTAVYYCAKGRFAGTFDSWGQGTLVTVSS gave nd (0 of 6 replicates).
The variant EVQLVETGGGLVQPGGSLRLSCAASGFDLNSYGISWVRQAPGKGPEWVSVIYSDGRRTFYGDDVKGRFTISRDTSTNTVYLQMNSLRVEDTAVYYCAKGRAAGHFKSWGQGTLVTVSS gave nd (0 of 6 replicates).
The variant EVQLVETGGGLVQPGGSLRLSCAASGFQLNSYGISWVRQAPGKGPEWVSVIYSDGRRTAYGDSVKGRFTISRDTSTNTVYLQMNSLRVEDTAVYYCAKGRNAGTFDSWGQGTLVTVSS gave 1.23 (6 of 6 replicates).
The variant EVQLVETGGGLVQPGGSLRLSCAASGFTPNSYGISWVRQAPGKGPEWVSVWYSDGRRTFDSDSVKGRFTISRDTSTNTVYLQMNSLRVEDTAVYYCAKGRAGGTFDSWGQGTLVTVSS gave nd (0 of 6 replicates).

Excerpt, the first 2 entries:

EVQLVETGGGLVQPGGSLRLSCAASGFTLNSYGISWVRQAPGKGPEWVSVIYADGRRTFYQDSVKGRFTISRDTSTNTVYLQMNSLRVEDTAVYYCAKGRAAGTFDSWGQGTLVTVSS: 0.35 (6 of 6 replicates).
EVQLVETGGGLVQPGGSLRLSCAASGFDLNSYGISWVRQAPGKGPEWVSVIYSDGRRTFYSDRVKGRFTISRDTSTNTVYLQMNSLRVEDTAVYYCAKGEAAGTFDKWGQGTLVTVSS: 0.86 (6 of 6 replicates).

As a blank, each scFv also met three strains without target: over all heavy chain designs, 1% of these pairings were detected, typically at 2.08 and seldom below 0.84.
In the paper, a design with two or fewer of six values counts as a poor binder.
The parent sequence was in this pool as ten entries: three were never detected, three once, and four in most replicates, with averages from 0.34 to 2.37.

Reference: Li et al. 2023, doi:10.1038/s41467-023-39022-2. File: FLAb, binding data.